Data published in US20190367516A1 (Bayer Pharma Aktiengesellschaft, priority 2015, published 2019).

The chains behind the UniProt entries cited, without tags or fusion partners.
UniProt P08172, whole entry: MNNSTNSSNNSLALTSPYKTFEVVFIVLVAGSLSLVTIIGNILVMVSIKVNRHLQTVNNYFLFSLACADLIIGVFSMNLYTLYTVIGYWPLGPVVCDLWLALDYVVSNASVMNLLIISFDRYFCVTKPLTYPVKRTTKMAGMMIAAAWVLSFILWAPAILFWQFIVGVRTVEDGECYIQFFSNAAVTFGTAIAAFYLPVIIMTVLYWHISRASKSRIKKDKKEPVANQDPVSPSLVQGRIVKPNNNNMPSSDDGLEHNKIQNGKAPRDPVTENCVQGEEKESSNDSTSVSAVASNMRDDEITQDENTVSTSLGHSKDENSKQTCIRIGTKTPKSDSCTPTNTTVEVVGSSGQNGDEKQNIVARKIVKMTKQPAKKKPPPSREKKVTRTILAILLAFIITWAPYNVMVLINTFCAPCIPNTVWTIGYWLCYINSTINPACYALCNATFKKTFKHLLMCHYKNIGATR

Biological target: human M2 receptor (Homo sapiens, UniProt P08172)
[1] = Receptor activity EC50, M2-GIRK1/4 activation test, acetylcholine at EC20, allosteric potency, in some cases mean values from two or more determinations

| SMILES | EC50 (Receptor activity EC50, allosteric potency at EC20 acetylcholine, M2-GIRK1/4 reporter cells, in some cases mean of two or more determinations) [nM] | EC50 [1] [nM] |
| --- | --- | --- |
| O=C(NC12CC3CC(CC(C3)C1)C2)c1cn(-c2ccc(F)cc2F)c2nc(N3CCC[C@@H]3CO)ccc2c1=O (racemic) [Example 127, rac-1-(2,4-Difluorophenyl)-7-[2-(hydroxymethyl)pyrrolidin-1-yl]-4-oxo-N-(tricyclo[3.3.1.1^3,7]dec-1-yl)-1,4-dihydro-1,8-naphthyridine-3-carboxamide] | – | 77 |
| CN(C)c1ccc2c(=O)c(C(=O)NCc3c(Cl)cccc3C(F)(F)F)cn(-c3ccc(F)cc3F)c2n1 [Example 58, N-[2-Chloro-6-(trifluoromethyl)benzyl]-1-(2,4-difluorophenyl)-7-(dimethylamino)-4-oxo-1,4-dihydro-l,8-naphthyridine-3-carboxamide] | – | 77 |

Continued, values first:

| EC50 (Receptor activity EC50, allosteric potency at EC20 acetylcholine, M2-GIRK1/4 reporter cells, in some cases mean of two or more determinations) [nM] | EC50 [1] [nM] | SMILES |
| --- | --- | --- |
| 77 | – | O=C(N[C@H](C1CC1)C(F)(F)F)c1cn(-c2c(Cl)cc(F)cc2Cl)c2nc(N3CCNC3=O)ccc2c1=O [Example 647, N-[(1R)-1-Cyclopropyl-2,2,2-trifluoroethyl]-1-(2,6-dichloro-4-fluorophenyl)-4-oxo-7-(2-oxoimidazolidin-1-yl)-1,4-dihydro-1,8-naphthyridine-3-carboxamide] |
| – | 77 | CC[C@@H](NC(=O)c1cn(-c2c(F)cccc2F)c2nc(N3CCC(C)(O)C3)ccc2c1=O)C(F)(F)F (single isomer, unassigned) [Example 278] |
| – | 77 | CC[C@H](NC(=O)c1cn(-c2c(F)cc(F)cc2F)c2nc(N3CCN(CCO)C3=O)ccc2c1=O)C(F)(F)F [Example 362, 7-[3-(2-Hydroxyethyl)-2-oxoimidazolidin-1-yl]-4-oxo-N-[(2S)-1,1,1-trifluorobutan-2-yl]-1-(2,4,6-trifluorophenyl)-1,4-dihydro-1,8-naphthyridine-3-carboxamide] |

Read-outs that look alike come from different tables or passages of the source.
